AF4-AF9 inh – inhibitors of human MLL-AF4/AF9 interaction | AlphaScreen, biotin-AF4 peptide binding to FLAG-AF9 | P42568 | inhibition, % at 10 µM | hit rate 0.47% among 350,000;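 active = every replicate reaching a set inhibition limit, whatever the replicate mean, cut at about 25% in these data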;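 also: 0% = plate neutral control median and 100% = total signal loss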
RAD52 inh – RAD52 (human) annealing inhibition. AID 651710. recombinant RAD52 DNA annealing, FRET fluorescence. P43351. hit rate 0.46% among 360,000. inhibition, % at 18.7 µM;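 active = every replicate showing at least 50% inhibition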
E-sel inducer – induces E-selectin expression in human endothelial cells | P16581 | HUVEC E-selectin immunofluorescence imaging; normalized: neutral wells 0, TNF-alpha wells 100 | hit rate 0.37% among 260,000 | activation, % at 7.58 µM | AID 686992;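 active = mean E-selectin-positive cell signal at least 10% of the positive control, reached in at least 60% of replicates, without over 20% cell loss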
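Test system: HUVEC | Signal: Immunofluorescence imaging | Read-out: Percent E-selectin-positive cells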
Yeast UUG start-1 – modulators of start codon recognition fidelity in yeast. S. cerevisiae UUG-firefly luciferase reporter, luminescence/redox ratio. activity score, % at 18.7 µM. 0.13% of 350,000 active. AID 602363;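 active = replicate mean at a twofold rise or more, about +100% in these data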;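 also: firefly luciferase made from a UUG start codon reports start codon fidelity; reporter light over untreated wells divided by growth signal over untreated wells; some hits fall short of that in this replicate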
SIRT5 block – inhibitors of human sirtuin-5 desuccinylase. inhibition, % at 15 µM. Q9NXA8. hit rate 1.1% among 330,000. Purified SirT5, succinyl-peptide AMC, trypsin-coupled fluorescence; in the data active = inhibition above about 15%
RAD54 inh – inhibitors of human RAD54 branch migration; Q92698; RAD54 Holliday junction branch migration, FAM/BHQ fluorescence; inhibition, % at 10.4 µM; hit rate 0.14% among 360,000; AID 602329;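 active = mean normalized replicate activity at least 40 and at least half of replicates scoring 40 or more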;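 also: 0% = median of neutral control wells and 100% = median of positive control wells; inhibitors cause a drop in the FAM fluorescence signal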
Yeast UUG start-2 – alters UUG start codon use in yeast. shares compounds with Yeast UUG start-1. S. cerevisiae UUG-start firefly luciferase, luminescence, 4 h; 100% means double the DMSO signal. activation, % at 38 µM. 540 tested, under 10 active. AID 652061;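 active = signal increase whose fitted curve reaches an absolute level of 40 at a concentration under 10 µM; inactive = activity opposite to the expected increase, or the rest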
Active calls of the source: *. Most compounds without a hit are left out; they make up all but 1.8% or so of the library.

What do the screens show for `C/C=C/c1cnc2c(c1)C(=O)N([C@H](C)CO)C[C@@H](C)[C@@H](CN(C)Cc1ccc(F)cc1)O2`?
AF4-AF9 inh: -4.1; RAD52 inh: 0.6; E-sel inducer: 3.8; Yeast UUG start-1: -3.2; SIRT5 block: 1.1; RAD54 inh: 1.9

Results for CC(C)NC(=O)Nc1ccc2c(c1)C(=O)N([C@H](C)CO)C[C@@H](C)[C@H](CN(C)S(=O)(=O)c1cccs1)O2 ?
E-sel inducer: -1.3; Yeast UUG start-1: 7.9

How did CC(=O)N1[C@@H](CO)[C@@H](c2ccc(-c3ccc(F)cc3)cc2)[C@@H]1CNC(=O)C1CC1 do in these assays?
E-sel inducer: 0.2; Yeast UUG start-1: 3.5; RAD54 inh: 3.2

What do the screens show for `CCCC#Cc1cnc2c(c1)C(=O)N([C@@H](C)CO)C[C@H](C)[C@@H](CN(C)C(=O)c1ccc(F)cc1)O2`?
AF4-AF9 inh: 1.1; RAD52 inh: 7.4; E-sel inducer: -0.1; Yeast UUG start-1: 4.8; SIRT5 block: 1.9; RAD54 inh: 5.3

Results for O=C(C[C@@H]1C=C[C@@H](NC(=O)CC2CC2)[C@@H](CO)O1)NCc1ccc(-c2ccccc2)cc1 ?
AF4-AF9 inh: 1.7; RAD52 inh: 3.3; E-sel inducer: 0.1; Yeast UUG start-1: -2.1; SIRT5 block: 0.7; RAD54 inh: 7.2

Results for Cc1c(C(=O)CN2CCCC(C)(C)C2)c2ccccc2n1C ?
AF4-AF9 inh: -1.6; RAD52 inh: -7.4; Yeast UUG start-1: active; SIRT5 block: -4.8; RAD54 inh: -2.5; Yeast UUG start-2: -0.7

How did Cc1ccc(-c2cnc3c(c2)C(=O)N([C@@H](C)CO)C[C@@H](C)[C@H](CN(C)C(=O)CN(C)C)O3)cc1 do in these assays?
AF4-AF9 inh: -1.5; RAD52 inh: -2.8; E-sel inducer: -0.1; Yeast UUG start-1: 162.7*; SIRT5 block: -0.1; RAD54 inh: -9.9; Yeast UUG start-2: inactive

Results for C[C@@H]1CN([C@@H](C)CO)C(=O)c2cc(C#CCC3CCCC3)cnc2O[C@@H]1CN(C)C(=O)CN(C)C ?
AF4-AF9 inh: 5.6; RAD52 inh: 18.6; E-sel inducer: 0.8; Yeast UUG start-1: 124.5*; SIRT5 block: 5.9; RAD54 inh: 15.1; Yeast UUG start-2: inactive

How did CNC[C@H]1Oc2cc(-c3ccccc3F)ccc2S(=O)(=O)N([C@H](C)CO)C[C@@H]1C do in these assays?
AF4-AF9 inh: 1.8; RAD52 inh: 18.1; E-sel inducer: 0.7; Yeast UUG start-1: 2.1; SIRT5 block: 1.0; RAD54 inh: 0.4

Results for CCC(=O)N1[C@H](CO)[C@H](c2ccc(-c3ccccc3)cc2)[C@@H]1CNC(=O)COC ?
E-sel inducer: 0.1; Yeast UUG start-1: 85.2; RAD54 inh: -7.3

Results for CCCN(CC(=O)Nc1ccccc1C)C(=O)Cc1cccs1 ?
AF4-AF9 inh: 5.8; RAD52 inh: 11.4; E-sel inducer: -0.7; Yeast UUG start-1: -16.0; SIRT5 block: 1.5; RAD54 inh: -7.1

Results for CCCN(CC(=O)Nc1ccccc1C)C(=O)/C=C/c1cccs1 ?
AF4-AF9 inh: 8.3; RAD52 inh: -18.0; Yeast UUG start-1: active; SIRT5 block: 1.3; RAD54 inh: 3.5; Yeast UUG start-2: -4.4

What do the screens show for `CNC(=O)c1ccccc1NC(=O)c1cccc(S(=O)(=O)N2CCCCC2)c1`?
AF4-AF9 inh: -1.6; RAD52 inh: -5.0; E-sel inducer: 0.8; Yeast UUG start-1: 188.3*; SIRT5 block: -5.4; RAD54 inh: -3.7; Yeast UUG start-2: -3.0

What do the screens show for `Cc1ccccc1NC(=O)c1cccc(S(=O)(=O)N2CCCCC2)c1`?
AF4-AF9 inh: -1.5; RAD52 inh: -8.9; Yeast UUG start-1: 16.2; SIRT5 block: -0.1; RAD54 inh: 3.1

What do the screens show for `COc1cc(C(=O)OCC(=O)c2cc(C)n(CC3CCCO3)c2C)cc(OC)c1C` (stereo unspecified)?
AF4-AF9 inh: 5.0; RAD52 inh: -20.7; Yeast UUG start-1: 106.7*; SIRT5 block: 1.8; RAD54 inh: 0.0; Yeast UUG start-2: 6.0

What do the screens show for `COc1cc(C)ccc1OCC(=O)OCC(=O)c1cc(C)n(CC2CCCO2)c1C` (stereo unspecified)?
AF4-AF9 inh: 2.9; RAD52 inh: -8.2; E-sel inducer: 15.1; Yeast UUG start-1: 5.9; SIRT5 block: 2.5; RAD54 inh: -10.3

Results for Cc1cccc(NC(=O)Cc2cccs2)n1 ?
Yeast UUG start-1: 542.3*; RAD54 inh: 8.5; Yeast UUG start-2: 1.9

How did O=C(CNC(=O)c1ccco1)N=Nc1c(O)n(CCc2ccccc2)c2ccccc12 do in these assays?
AF4-AF9 inh: -15.0; RAD52 inh: -6.6; E-sel inducer: 0.3; Yeast UUG start-1: 229.0*; SIRT5 block: -1.5; RAD54 inh: 8.4; Yeast UUG start-2: 2.1

How did CCn1c(O)c(N=NC(=O)CNC(=O)Cc2ccccc2)c2ccccc21 do in these assays?
AF4-AF9 inh: -0.2; RAD52 inh: 2.6; Yeast UUG start-1: -2.7; SIRT5 block: -1.0; RAD54 inh: 5.9

What do the screens show for `COCC(=O)N1CCN(c2ccc([N+](=O)[O-])cc2)CC1`?
Yeast UUG start-1: 671.2*; RAD54 inh: 5.8; Yeast UUG start-2: -2.0

What do the screens show for `Cc1cc(N2CCOCC2)nc2ccc(NC(=O)C3CCCCC3)cc12`?
AF4-AF9 inh: 0.0; RAD52 inh: 5.4; E-sel inducer: -1.1; Yeast UUG start-1: -11.2; SIRT5 block: -3.3; RAD54 inh: -3.1

What do the screens show for `Cc1cc(N2CCOCC2)nc2ccc(NC(=S)N3CCCCC3C)cc12` (stereo unspecified)?
AF4-AF9 inh: 9.8; RAD52 inh: -15.1; Yeast UUG start-1: 143.4*; SIRT5 block: 1.1; RAD54 inh: 3.6; Yeast UUG start-2: -0.3

How did O=C(CN1CCCc2ccccc21)N/N=C/c1ccccc1O do in these assays?
Yeast UUG start-1: 66.9*; RAD54 inh: 3.0; Yeast UUG start-2: 10.0

How did O=C(CN1CCCc2ccccc21)N/N=C/c1ccc(F)cc1F do in these assays?
AF4-AF9 inh: -8.5; RAD52 inh: -11.9; Yeast UUG start-1: -21.7; SIRT5 block: -0.6; RAD54 inh: -1.2

Results for C[C@H](CO)N1C[C@H](C)[C@H](CN(C)C(=O)Cc2ccccc2)OCc2cn(nn2)CCCC1=O ?
E-sel inducer: 0.1

What do the screens show for `CC12CCC(C(=O)N(CC(O)CN3CCN(Cc4ccccc4)CC3)C1=O)C2(C)C` (stereo unspecified)?
AF4-AF9 inh: 2.8; RAD52 inh: -24.9; Yeast UUG start-1: 102.1*; SIRT5 block: -2.2; RAD54 inh: -4.9; Yeast UUG start-2: -5.2

What do the screens show for `Cc1cc(O)ccc1C1(c2ccc(O)cc2C)OC(=O)c2ccccc21`?
Yeast UUG start-1: 444.1*; RAD54 inh: 9.6; Yeast UUG start-2: 6.2

A draw from above in order of number of heavy atoms, highest first.
Results for C[C@H](CO)N1C[C@H](C)[C@H](CN(C)C(=O)Cc2ccccc2)OCc2cn(nn2)CCCC1=O ?
E-sel inducer: 0.1

What do the screens show for `Cc1cc(N2CCOCC2)nc2ccc(NC(=O)C3CCCCC3)cc12`?
AF4-AF9 inh: 0.0; RAD52 inh: 5.4; E-sel inducer: -1.1; Yeast UUG start-1: -11.2; SIRT5 block: -3.3; RAD54 inh: -3.1

How did O=C(CN1CCCc2ccccc21)N/N=C/c1ccccc1O do in these assays?
Yeast UUG start-1: 66.9*; RAD54 inh: 3.0; Yeast UUG start-2: 10.0

Screening data (PubChem BioAssay)
